Assay [1] is filed under the species Homo sapiens. As to the kind of experiment: Selectivity ratio of IC50 for PI3Kbeta (unknown origin) to IC50 for GST-tagged PI3Kdelta (unknown origin).
Assay [2] is filed under the species Homo sapiens. Description: Selectivity ratio of IC50 for PI3Kalpha (unknown origin) to IC50 for GST-tagged PI3Kdelta (unknown origin).

The record followed here is ChEMBL document CHEMBL4350952, “Evolution of PI3Kγ and δ Inhibitors for Inflammatory and Autoimmune Diseases” (J Med Chem, 2019).

SMILES strings stand for the structures. Where only a bound is given, the exact number is not on record here.

As to `C[C@H](Nc1ncnc2[nH]cnc12)c1nc2ccc(F)cc2c(=O)n1-c1ccccc1` [ACALISIB], the Ratio IC50 is 63 in the assay filed under Homo sapiens [1] and over 1000 in the assay listed under Homo sapiens [2].
